Measurements from ChEMBL document CHEMBL1141545, “Synthesis and biological evaluation of 3,5-diaminoindazoles as cyclin-dependent kinase inhibitors” (Bioorg Med Chem Lett, 2008).

Biological target: Cyclin-dependent kinase 2 (Homo sapiens, UniProt P24941)
Experiment: Inhibition of CDK2
In the case of O=C(Cc1ccc(N2CCCCC2)cc1)Nc1n[nH]c2ccc(N3CCCS3(=O)=O)cc12, the IC50 is reported as 30 nM.

System: not listed separately
Experiment: Selectivity for CDK2 over CDK1
In the case of O=C(Cc1ccccc1)Nc1n[nH]c2ccc(N3CCCS3(=O)=O)cc12, the Ratio IC50 is reported as under 10. In the case of CSc1ccc(CC(=O)Nc2n[nH]c3ccc(N4CCCS4(=O)=O)cc23)cc1, the Ratio IC50 is reported as under 10. O=C(Cc1ccc(Cl)cc1)Nc1n[nH]c2ccc(N3CCCS3(=O)=O)cc12 showed a Ratio IC50 of under 10. For O=C(Cc1ccc(N2CCCCC2)cc1)Nc1n[nH]c2ccc(N3CCCS3(=O)=O)cc12, the Ratio IC50 was under 10. O=C(Cc1ccc(O)cc1)Nc1n[nH]c2ccc(N3CCCS3(=O)=O)cc12 showed a Ratio IC50 of under 10. CS(=O)(=O)c1ccc(CC(=O)Nc2n[nH]c3ccc(N4CCCS4(=O)=O)cc23)cc1 showed a Ratio IC50 of under 10. O=C(Cc1ccc(-c2ccccc2)cc1)Nc1n[nH]c2ccc(N3CCCS3(=O)=O)cc12 gave a Ratio IC50 of under 10. Molecule CCN(CC)c1ccc(CC(=O)Nc2n[nH]c3ccc(N4CCCS4(=O)=O)cc23)cc1 has a Ratio IC50 of under 10.
